These results are taken from patent publication US20100190851A1, “Use of Entacapone in cosmetic, dermatological and pharmaceutical compositions” (priority 2007, published 2010).

The target in assay [1] is T1, human P-Selectin-IgG-chimera (Homo sapiens, UniProt P16109).
T1 construct: fused on or other part: human IgG Fc part, fused on as a capture and dimerising handle (captured by goat anti human Fc antibody)
T1 sequence (P16109 42-195 limits assumed): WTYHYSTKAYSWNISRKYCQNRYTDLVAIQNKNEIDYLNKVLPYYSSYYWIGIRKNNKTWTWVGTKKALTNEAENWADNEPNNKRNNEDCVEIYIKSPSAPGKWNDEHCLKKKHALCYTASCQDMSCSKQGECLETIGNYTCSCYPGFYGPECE
The assay is described as follows: Sialyl Lewis^X Tyrosine Sulfate Assay (sLe^X TSA), P-selectin. As to conditions: binding of P-selectin chimera to sLe^X-tyrosine sulfate polyacrylamide. The protocol:
Sialyl Lewis^X Tyrosine Sulfate Assay (sLe^X TSA):
Compound of formula (I) is assayed on a molecular level for the ability to inhibit the binding of P- and L-selectin chimeric molecules to sLe^X and tyrosinesulfate residues linked to a polymeric matrix as a PSGL-1 substitute. IC50-values are determined.
Microtiter plates are coated overnight in carbonate buffer pH9.6 with goat anti human Fc mAB (10 μg/ml). After washing in assay buffer (25 mM 4-(2-hydroxyethyl)-1-piperazineethanesulfonic acid (HEPES), 150 mM NaCl, 1 mM CaCl2 pH7.4) and blocking (3% bovine serum albumin (BSA) in assay buffer) plates are incubated for 2 h at 37° C. with human P-Selectin-IgG-chimera (0.61 nM respectively 150 ng/mL) or human L-Selectin-IgG-chimera (0.61 nM respectively 89 ng/mL). 5 μl of sLe^X-tyrosine sulfate polyacrylamide (1 mg/ml) carrying 15% sLe^X, 10% Tyrosine-sulfate and 5% biotin is complexed with 20 μl Streptavidin-Peroxidase solution (1 mg/ml) and 25 μl assay buffer without CaCl2. […]
After incubation for 2 h at 37° C., wells are washed for six times with in assay buffer incl. […] Bound sLe^X-Tyrosine sulfate ligand complex is determined by measuring optical density at 450 nm vs. 620 nm in a Fusion alpha-FP reader (sold from Packard Bioscience, Dreieich, Germany). […]

For assay [2], the system named is human E-selectin-IgG chimera. The assay is described as follows: Flow chamber assay, attachment of HL-60 cells to E-selectin. Format: cell-based. Further details: dose or concentration left out as unconfirmed. As to conditions: flow shear 1 dyne/cm^2; after 5 minutes continuous flow. The protocol:
(§1) Flow Chamber Assay/Cell Adhesion and Rolling under Flow Conditions
(§2) To assess the capability of compound of formula (I) to inhibit cell binding under dynamic conditions resembling the flow in a blood vessel, flow chamber assays addressing/testing binding of HL-60 cells/various cell lines to P-selectin, and E-selectin chimeric molecules are performed.
(§3) Cell attachment under flow conditions is determined using a parallel flow chamber system. […]
(§4) After washing with assay buffer (“Roswell Park Memorial Institute 1640” (RPMI 1640)+10 mM HEPES) the dish is fitted into a parallel plate laminar flow chamber (sold from Glycotech, Rockville, Md.) and mounted on an inverted phase-contrast microscope (sold from Olympus, Hamburg, Germany) equipped with a CCD camera (JVC) that is connected to a PC. […] The flow rate is then decreased resulting in a calculated flow shear of 1 dyne/cm^2. Video sequences of 10 low power fields are digitally recorded after 5 minutes continuous flow. The percentage of inhibition is calculated from the mean number of cells per field that attached to the coated dish surface in the presence versus absence of compound of formula (I) of at independent experiments. […]

In assay [3] the test system is human P-selectin-IgG chimera. Put plainly: Flow chamber assay, attachment of HL-60 cells to P-selectin. It counts as cell-based. As to conditions: flow shear 1 dyne/cm^2; after 5 minutes continuous flow. Further details: dose or concentration left out as unconfirmed. The protocol: as §1, §2, §3, §4

In the case of sialyl Lewis X [sLe^X], the IC50 in assay [1] is above 3.6 mM. For the same substance, the “% inhibition of attachment of HL-60 cells, E-Selectin” value in assay [2] amounted to 32%. Moreover, the “% inhibition of attachment of HL-60 cells, P-Selectin” value in assay [3] was “n.s”.
